Assays:
TGR26 = target: T1, TGR26 (Rattus norvegicus, UniProt Q56UD9); experiment: Inhibiting activity of intracellular cAMP production, TGR26 expressing CHO cells; format: cell-based; settings: forskolin
T1 construct: treated with restriction enzymes ClaI and SpeI, and the insert encoding TGR26 was excised; expressed in transfected cells; host or cells: CHO dhfr- cells, plasmid pAK-rGPR7; membrane fraction
T1 sequence (Q56UD9 1-329): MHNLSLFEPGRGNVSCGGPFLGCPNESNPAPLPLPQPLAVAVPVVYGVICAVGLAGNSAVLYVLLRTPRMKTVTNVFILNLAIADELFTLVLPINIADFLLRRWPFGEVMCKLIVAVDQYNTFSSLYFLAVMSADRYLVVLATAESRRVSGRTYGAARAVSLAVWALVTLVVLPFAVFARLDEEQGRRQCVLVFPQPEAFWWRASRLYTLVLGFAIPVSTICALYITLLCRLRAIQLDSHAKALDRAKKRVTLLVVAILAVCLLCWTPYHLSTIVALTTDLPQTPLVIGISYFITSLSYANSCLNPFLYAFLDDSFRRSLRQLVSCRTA
Experimental: TGR26 expressing CHO cells prepared in Reference Example 68, were seeded on 24-well plate at 5×10^4 cells/well and cultivated for 48 hours. The cells were washed with MEMα buffer (pH7.4) containing 0.2 mM 3-isobutyl-methylxanthine, 0.05% BSA (bovine serum albumine) and 20 mM HEPES [hereafter, MEMα buffer (pH7.4) containing 0.2 mM 3-isobutyl-methylxanthine, 0.05% BSA (bovine serum albumine) and 20 mM HEPES may be referred to as reaction buffer]. Then, 0.5 ml of the reaction buffer was added to the cells and the suspension was incubated for 30 minutes in the incubator. […] The cAMP level in the extract was measured using the cAMP EIA Kit (Amersham Pharmacia Biotech).
The human homologue of GPR8 ligand peptide consisting of 23 residues, which was obtained in Reference Example (hereafter, sometimes referred to as hGPR8L(1-23)), or the human homologue of GPR8 ligand peptide consisting of 30 residues, which was obtained in Reference Example (hereafter, sometimes referred to as hGPR8L(1-30)), was administered at various concentrations to membrane fraction of the TGR26 expressing CHO cells by the method described in Reference Example 69, and an inhibiting activity of intracellular cAMP production was measured. […]

Sequences of proteins named here, by UniProt entry; tags and fusion partners are left off. A change or cut given only in a name is not applied to a line headed by its entry.
UniProt P48146: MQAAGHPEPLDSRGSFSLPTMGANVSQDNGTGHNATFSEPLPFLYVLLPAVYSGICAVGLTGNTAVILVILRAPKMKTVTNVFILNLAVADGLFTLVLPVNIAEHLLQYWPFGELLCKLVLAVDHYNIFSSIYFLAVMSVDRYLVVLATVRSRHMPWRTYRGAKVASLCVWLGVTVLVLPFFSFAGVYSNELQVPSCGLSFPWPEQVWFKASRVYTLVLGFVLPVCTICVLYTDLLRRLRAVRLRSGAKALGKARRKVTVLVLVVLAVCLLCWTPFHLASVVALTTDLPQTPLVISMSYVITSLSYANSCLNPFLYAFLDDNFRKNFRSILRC

GPR8 = GPR8 (Homo sapiens, UniProt P48146); experiment: Inhibiting activity of intracellular cAMP production, GPR8 expressing CHO cells; format: cell-based; set-up: expressed in transfected cells; host or cells: CHO dhfr- cells, plasmid pAKKO-GPR8, mainly clone #17; settings: forskolin
Experimental: The CHO/GPR8 cells prepared in Reference Example 4 and mock CHO cells were inoculated on a 24-well plate in 5×10^4 cells/well followed by cultivation for 48 hours. The cells were then washed with Hanks' buffer (pH 7.4) containing 0.2 mM 3-isobutyl-methylxanthine, 0.05% BSA and 20 mM HEPES (hereinafter Hanks' buffer (pH 7.4) containing 0.2 mM 3-isobutyl-methylxanthine, 0.05% BSA and 20 mM HEPES is referred to as a reaction buffer). Thereafter, 0.5 ml of the reaction buffer was added to the system, which was kept in the incubator for 30 minutes. The reaction buffer was removed and 0.25 ml of a fresh reaction buffer was added to the cells. […] The amount of cAMP in the extract was measured using cAMP EIA kit (Amersham Pharmacia Biotech).
The hGPR8L(1-23), which was synthesized in Reference Example 12, was brought into contact with the GPR8 expressing CHO cells at various concentrations by the method described in Reference Example 5, and an inhibiting activity of intracellular cAMP production was measured. […]
The hGPR8L(1-30), which was synthesized in Reference Example 13, was brought into contact with the GPR8 expressing CHO cells at various concentrations by the method described in Reference Example 5, and an inhibiting activity of intracellular cAMP production was measured. […]

SMILES | inhibiting activity of intracellular cAMP production (in words) (TGR26) | inhibiting activity of intracellular cAMP production (in words) (GPR8)
CSCC[C@H](NC(=O)[C@H](CC(C)C)NC(=O)[C@H](CC(C)C)NC(=O)CNC(=O)[C@H](C)NC(=O)[C@H](C)NC(=O)[C@H](CCCNC(=N)N)NC(=O)CNC(=O)[C@@H](NC(=O)[C@@H](NC(=O)[C@H](Cc1c[nH]cn1)NC(=O)[C@H](Cc1ccc(O)cc1)NC(=O)[C@H](CCCNC(=N)N)NC(=O)[C@@H]1CCCN1C(=O)[C@H](CO)NC(=O)[C@H](C)NC(=O)[C@@H](NC(=O)[C@H](Cc1c[nH]cn1)NC(=O)[C@H](CCCCN)NC(=O)[C@H](Cc1ccc(O)cc1)NC(=O)[C@@H](N)Cc1c[nH]c2ccccc12)C(C)C)[C@@H](C)O)C(C)C)C(=O)NCC(=O)N[C@@H](CC(C)C)C(=O)O [hGPR8L(1-23)] | apparently inhibited intracellular cAMP production | apparently inhibited intracellular cAMP production
CSCC[C@H](NC(=O)[C@H](CC(C)C)NC(=O)[C@H](CC(C)C)NC(=O)CNC(=O)[C@H](C)NC(=O)[C@H](C)NC(=O)[C@H](CCCNC(=N)N)NC(=O)CNC(=O)[C@@H](NC(=O)[C@@H](NC(=O)[C@H](Cc1c[nH]cn1)NC(=O)[C@H](Cc1ccc(O)cc1)NC(=O)[C@H](CCCNC(=N)N)NC(=O)[C@@H]1CCCN1C(=O)[C@H](CO)NC(=O)[C@H](C)NC(=O)[C@@H](NC(=O)[C@H](Cc1c[nH]cn1)NC(=O)[C@H](CCCCN)NC(=O)[C@H](Cc1ccc(O)cc1)NC(=O)[C@@H](N)Cc1c[nH]c2ccccc12)C(C)C)[C@@H](C)O)C(C)C)C(=O)NCC(=O)N[C@@H](CC(C)C)C(=O)N[C@@H](CCCNC(=N)N)C(=O)N[C@@H](CCCNC(=N)N)C(=O)N[C@@H](CO)C(=O)N1CCC[C@H]1C(=O)N[C@@H](Cc1ccc(O)cc1)C(=O)N[C@@H](CC(C)C)C(=O)N[C@@H](Cc1c[nH]c2ccccc12)C(=O)O [hGPR8L(1-30)] | apparently inhibited intracellular cAMP production | apparently inhibited intracellular cAMP production

Source: patent US7375074B2, “Body weight gain inhibitor” (priority 2001, dated 2008)
